The values that follow come from ChEMBL document CHEMBL1148673, “Peptidomimetic C5a receptor antagonists with hydrophobic substitutions at the C-terminus: increased receptor specificity and in vivo activity” (Bioorg Med Chem Lett, 2006).

The chains behind the UniProt entries cited, without tags or fusion partners. Where a name states a change or a piece, a line headed by the entry shows the natural chain unless it says otherwise.
UniProt P21452, whole entry: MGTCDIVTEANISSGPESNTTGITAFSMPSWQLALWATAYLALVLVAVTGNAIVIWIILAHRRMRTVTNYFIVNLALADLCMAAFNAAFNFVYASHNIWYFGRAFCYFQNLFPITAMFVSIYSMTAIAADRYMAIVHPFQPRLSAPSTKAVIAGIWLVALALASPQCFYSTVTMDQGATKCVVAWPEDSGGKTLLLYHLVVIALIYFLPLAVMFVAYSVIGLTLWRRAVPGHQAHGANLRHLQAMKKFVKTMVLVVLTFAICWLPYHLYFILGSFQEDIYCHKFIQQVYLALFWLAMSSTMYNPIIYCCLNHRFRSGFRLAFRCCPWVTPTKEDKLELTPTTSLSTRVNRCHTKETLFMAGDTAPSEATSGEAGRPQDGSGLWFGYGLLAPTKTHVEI
UniProt P41146: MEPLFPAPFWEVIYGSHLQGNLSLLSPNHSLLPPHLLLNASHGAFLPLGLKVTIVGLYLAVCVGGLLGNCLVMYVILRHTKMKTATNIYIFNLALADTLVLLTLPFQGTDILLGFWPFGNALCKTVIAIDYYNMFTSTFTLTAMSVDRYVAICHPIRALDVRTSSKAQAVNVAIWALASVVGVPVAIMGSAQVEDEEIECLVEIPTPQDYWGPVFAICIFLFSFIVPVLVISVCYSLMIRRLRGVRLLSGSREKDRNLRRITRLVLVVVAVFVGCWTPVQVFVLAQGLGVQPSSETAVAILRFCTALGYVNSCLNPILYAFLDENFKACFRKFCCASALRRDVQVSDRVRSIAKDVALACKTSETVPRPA
UniProt P37288, whole entry: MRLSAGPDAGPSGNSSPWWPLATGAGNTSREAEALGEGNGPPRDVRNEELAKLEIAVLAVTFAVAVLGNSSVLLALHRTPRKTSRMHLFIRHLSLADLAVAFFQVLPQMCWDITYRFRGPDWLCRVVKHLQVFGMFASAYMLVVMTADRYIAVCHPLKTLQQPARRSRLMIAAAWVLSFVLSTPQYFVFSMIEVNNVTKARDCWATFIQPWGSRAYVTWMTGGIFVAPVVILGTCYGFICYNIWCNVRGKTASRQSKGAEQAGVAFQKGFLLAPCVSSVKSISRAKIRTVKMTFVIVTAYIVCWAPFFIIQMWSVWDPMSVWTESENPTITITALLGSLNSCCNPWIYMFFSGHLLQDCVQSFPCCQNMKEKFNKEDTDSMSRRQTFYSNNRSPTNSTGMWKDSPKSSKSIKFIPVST
UniProt P32245, whole entry: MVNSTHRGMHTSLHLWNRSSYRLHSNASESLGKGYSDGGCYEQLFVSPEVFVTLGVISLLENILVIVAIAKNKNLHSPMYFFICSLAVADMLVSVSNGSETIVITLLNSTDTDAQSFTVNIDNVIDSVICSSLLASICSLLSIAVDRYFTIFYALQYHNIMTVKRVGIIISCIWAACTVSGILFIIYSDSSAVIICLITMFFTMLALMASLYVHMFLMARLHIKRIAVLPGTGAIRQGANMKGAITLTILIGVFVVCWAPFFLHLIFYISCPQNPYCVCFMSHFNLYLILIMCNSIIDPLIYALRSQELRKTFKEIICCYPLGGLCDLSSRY

Test [1] concerns the target Substance-K receptor (Homo sapiens, UniProt P21452). Put plainly: Binding affinity to NK2 receptor.
Test [2] deals with Nociceptin receptor (Homo sapiens, UniProt P41146). The test can be described thus: Binding affinity to ORL1 receptor.
Test [3] deals with Vasopressin V1a receptor (Homo sapiens, UniProt P37288). The test can be described thus: Binding affinity to V1a receptor.
Test [4] deals with Melanocortin receptor 4 (Homo sapiens, UniProt P32245). Put plainly: Binding affinity to MC4 receptor.

Turning to `CC(=O)N[C@@H](Cc1ccccc1)C(=O)N[C@H]1CCCNC(=O)[C@H](CCCNC(=N)N)NC(=O)[C@H](Cc2c[nH]c3ccccc23)NC(=O)[C@@H](CC2CCCCC2)NC(=O)[C@@H]2CCCN2C1=O`, the IC50 turned out to be 87 nM in test [1], 2200 nM in test [2], 740 nM in test [3] and 400 nM in test [4].

One may read the IC50 as the concentration needed to halve the response being measured.
